These are literature values, as cited in US11083748B2 (priority 2003, dated 2021).

For data set [1] the following is noted: following intramuscular administration.

In the case of `OCC(S)CS` (stereo not drawn), the “time until essentially all renally excreted” value in data set [1] was no more than 4 h. For the same molecule, the “patients experiencing one of several adverse events” value with patients (5 mg/kg dose) was “Approximately 50%”. For the same molecule, the “rise in systolic and diastolic blood pressure” value in the data set with patients (human, in vivo) is listed as “up to 50 mmHg”.
